# From patent publication US20260384401A1, “NOVEL BICYCLIC HETEROCYCLYL COMPOUNDS AND USE THEREOF” (published 2026)
# Amino acid sequences for entries named in this document (tags omitted). A change or cut given only in a name is not applied to a line headed by its entry.
# UniProt Q07889, whole entry, stated change not applied: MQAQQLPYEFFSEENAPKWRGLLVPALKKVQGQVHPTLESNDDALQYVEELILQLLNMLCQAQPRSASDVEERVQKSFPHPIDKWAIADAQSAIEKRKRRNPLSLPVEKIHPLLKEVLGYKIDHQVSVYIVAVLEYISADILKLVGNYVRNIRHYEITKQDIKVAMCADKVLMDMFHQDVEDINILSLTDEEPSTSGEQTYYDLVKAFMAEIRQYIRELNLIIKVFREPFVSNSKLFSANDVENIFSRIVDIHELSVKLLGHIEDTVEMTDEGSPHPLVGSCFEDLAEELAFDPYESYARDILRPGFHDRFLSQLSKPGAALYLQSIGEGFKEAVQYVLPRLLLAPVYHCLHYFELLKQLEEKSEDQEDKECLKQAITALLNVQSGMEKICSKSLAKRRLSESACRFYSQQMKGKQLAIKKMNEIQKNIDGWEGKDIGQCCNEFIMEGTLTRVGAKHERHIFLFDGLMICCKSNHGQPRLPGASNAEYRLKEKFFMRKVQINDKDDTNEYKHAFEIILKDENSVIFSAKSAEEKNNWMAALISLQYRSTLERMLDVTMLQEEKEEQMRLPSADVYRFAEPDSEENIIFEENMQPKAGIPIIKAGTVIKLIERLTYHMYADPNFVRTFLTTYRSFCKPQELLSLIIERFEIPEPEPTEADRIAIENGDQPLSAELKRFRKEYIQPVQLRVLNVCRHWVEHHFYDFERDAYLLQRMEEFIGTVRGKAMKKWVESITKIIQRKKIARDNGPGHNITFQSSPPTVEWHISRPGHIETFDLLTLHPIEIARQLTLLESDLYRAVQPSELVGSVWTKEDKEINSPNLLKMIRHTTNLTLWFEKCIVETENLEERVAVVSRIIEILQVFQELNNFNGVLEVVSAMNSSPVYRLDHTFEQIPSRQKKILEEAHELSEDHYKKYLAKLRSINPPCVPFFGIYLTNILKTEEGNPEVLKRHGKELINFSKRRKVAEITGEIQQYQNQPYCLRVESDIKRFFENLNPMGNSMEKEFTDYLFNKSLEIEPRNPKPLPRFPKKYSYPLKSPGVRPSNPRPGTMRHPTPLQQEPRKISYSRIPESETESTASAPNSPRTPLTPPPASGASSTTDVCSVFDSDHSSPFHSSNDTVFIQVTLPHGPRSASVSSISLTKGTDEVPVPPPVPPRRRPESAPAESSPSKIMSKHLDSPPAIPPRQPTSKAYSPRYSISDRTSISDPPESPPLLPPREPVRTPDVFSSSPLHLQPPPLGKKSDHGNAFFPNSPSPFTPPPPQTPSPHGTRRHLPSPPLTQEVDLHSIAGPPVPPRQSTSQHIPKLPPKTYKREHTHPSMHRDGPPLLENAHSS
# Target: KRAS G12C/SOS1 (Homo sapiens, UniProt Q07889)
# Test: KRAS::SOS1 HTRF Binding Analysis (inhibition of protein-protein interaction between SOS1 and KRAS G12C)
# Details: 0.1 uM compound, GTP, room temperature, one hour and 40 minutes
# Description: An SOS1 inhibitory ability of the example compounds of the present invention was confirmed by identifying the effect of inhibiting a protein-protein interaction between SOS1 and KRAS G12C of the compounds according to examples of the present invention.
# Specifically, a KRAS G12C/SOS1 binding kit (64KRASG12PEG, Cisbio, France) was text use purchased and used. 2 ? of Tagl-KRAS G12C and 2 ? of GTP were premixed and dispensed 4 μl each into a 384 well plate (6007290, PerkinElmer, USA). 2 ? of the compound and 4 ? of Tag2-SOS1 were placed and then 10 ? of premixed Anti-Tag1 XL665 antibody and Anti-Tag2 Tb cryptate antibody was dispensed to each well. The plates were sealed and allowed to react at room temperature for one hour and 40 minutes, and then 665 nm wavelength and 620 nm wavelength were measured using a HTRF® compatible reader (Synergy H4, BioTeK, USA), and the ratio of receptor and donor emission signals for each well was calculated as 665 nm/620 nm×10^4.
# (+++: more than 70 to 100% inhibition, ++: more than 40 to 70% inhibition, +: 0 to 40% inhibition)
row,% inhibition at 0.1 uM,SMILES
1,+ (0 to 40% inhibition),C[C@@H]1CN(c2ccc3nncc(N[C@H](C)c4cccc(C(F)F)c4F)c3c2)CCO1
2,+ (0 to 40% inhibition),C[C@H]1CN(c2ccc3nncc(N[C@H](C)c4cccc(C(F)F)c4F)c3c2)CCO1
3,+ (0 to 40% inhibition),C[C@@H](Nc1cnnc2ccc(N3CC[C@H](F)C3)cc12)c1cccc(C(F)F)c1F
4,++ (more than 40 to 70% inhibition),C[C@@H](Nc1cnnc2ccc(N3CC4CC(C3)O4)cc12)c1cccc(C(F)F)c1F
5,+ (0 to 40% inhibition),CO[C@H]1CCCN(c2ccc3nncc(N[C@H](C)c4cccc(C(F)F)c4F)c3c2)C1
6,+ (0 to 40% inhibition),C[C@@H](Nc1cnnc2ccc(N3CC4(COC4)C3)cc12)c1cccc(C(F)F)c1F
7,+ (0 to 40% inhibition),C[C@@H](Nc1cnnc2ccc(N3CC(O)C3)cc12)c1cccc(C(F)F)c1F
8,+ (0 to 40% inhibition),CO[C@@H]1CCCN(c2ccc3nncc(N[C@H](C)c4cccc(C(F)F)c4F)c3c2)C1
9,+ (0 to 40% inhibition),C[C@@H](Nc1cnnc2ccc(N3CC[C@H](O)C3)cc12)c1cccc(C(F)F)c1F
10,++ (more than 40 to 70% inhibition),C[C@@H](Nc1cnnc2ccc(N3CCN(C)CC3)cc12)c1cccc(C(F)F)c1F
11,+ (0 to 40% inhibition),C[C@@H](Nc1cnnc2ccc(N3CCSCC3)cc12)c1cccc(C(F)F)c1F
12,+ (0 to 40% inhibition),COC1(C)CN(c2ccc3nncc(N[C@H](C)c4cccc(C(F)F)c4F)c3c2)C1
13,++ (more than 40 to 70% inhibition),C[C@@H](Nc1cnnc2ccc(N3CCC[C@H](O)C3)cc12)c1cccc(C(F)F)c1F
14,+ (0 to 40% inhibition),COC1CCN(c2ccc3nncc(N[C@H](C)c4cccc(C(F)F)c4F)c3c2)CC1
15,+++ (more than 70 to 100% inhibition),C[C@@H](Nc1cnnc2ccc(N3CCC(O)CC3)cc12)c1cccc(C(F)F)c1F
16,++ (more than 40 to 70% inhibition),C[C@@H](Nc1cnnc2ccc(N3CCC(N(C)C)CC3)cc12)c1cccc(C(F)F)c1F
17,++ (more than 40 to 70% inhibition),C[C@@H](Nc1cnnc2ccc(N3CCC(NC(=O)C4COC4)CC3)cc12)c1cccc(C(F)F)c1F
18,+ (0 to 40% inhibition),COC1CN(c2ccc3nncc(N[C@H](C)c4cccc(C(F)F)c4F)c3c2)C1
19,+ (0 to 40% inhibition),C[C@@H](Nc1cnnc2ccc(N3CC[C@@H](F)C3)cc12)c1cccc(C(F)F)c1F
20,+ (0 to 40% inhibition),C[C@@H](Nc1cnnc2ccc(N3CC4CCC(C3)O4)cc12)c1cccc(C(F)F)c1F
21,++ (more than 40 to 70% inhibition),C[C@@H](Nc1cnnc2ccc(N3CCN(C(=O)C4CC4)CC3)cc12)c1cccc(C(F)F)c1F
22,+ (0 to 40% inhibition),C[C@@H](Nc1cnnc2ccc(N3CCOCC3)cc12)c1cccc(C(F)F)c1F
23,+ (0 to 40% inhibition),C[C@@H](Nc1cnnc2ccc(N3CC(C)(O)C3)cc12)c1cccc(C(F)F)c1F
24,+ (0 to 40% inhibition),C[C@@H](Nc1cnnc2ccc(N3CCC[C@@H](O)C3)cc12)c1cccc(C(F)F)c1F
25,++ (more than 40 to 70% inhibition),C[C@@H](Nc1cnnc2ccc(N3CCC(C)(O)CC3)cc12)c1cccc(C(F)F)c1F
26,++ (more than 40 to 70% inhibition),C[C@@H](Nc1cnnc2ccc(N3CC[C@@H](O)C3)cc12)c1cccc(C(F)F)c1F
27,+++ (more than 70 to 100% inhibition),C[C@@H](Nc1cnnc2ccc(N3CC4(CN(C)C4)C3)cc12)c1cccc(C(F)F)c1F

# Continued, molecule first:
row,SMILES,% inhibition at 0.1 uM
1,C[C@@H](Nc1cnnc2ccc(NC3CCOCC3)cc12)c1cccc(C(F)F)c1F,+ (0 to 40% inhibition)
2,C[C@@H](Nc1cnnc2ccc(N[C@H]3CCNC3)cc12)c1cccc(C(F)F)c1F,++ (more than 40 to 70% inhibition)
3,C[C@@H](Nc1cnnc2ccc(N3CC(C)(O)C3)cc12)c1cccc(C(F)F)c1,+ (0 to 40% inhibition)
4,C[C@@H](Nc1cnnc2ccc(N3CC4CC(C3)O4)cc12)c1cccc(F)c1F,+ (0 to 40% inhibition)
5,C[C@@H](Nc1cnnc2ccc(N[C@@H]3CCNC3)cc12)c1cccc(C(F)F)c1F,+++ (more than 70 to 100% inhibition)
6,C[C@@H](Nc1cnnc2ccc(N[C@@H]3CCN(C)C3)cc12)c1cccc(C(F)F)c1F,++ (more than 40 to 70% inhibition)
7,Cc1c([C@@H](C)Nc2cnnc3ccc(N4CC5CC(C4)O5)cc23)cccc1C(F)(F)F,+ (0 to 40% inhibition)
8,C[C@@H](Nc1cnnc2ccc(N[C@@H]3CCNC3)cc12)c1cccc(C#N)c1,+ (0 to 40% inhibition)
9,C[C@@H](Nc1cnnc2ccc(C3=CCOCC3)cc12)c1cccc(C(F)F)c1F,+ (0 to 40% inhibition)
10,C[C@@H](Nc1cnnc2ccc(N3CC4CC(C3)O4)cc12)c1cc(O)cc(C(F)F)c1,+ (0 to 40% inhibition)
11,C[C@@H](Nc1cnnc2ccc(N3C[C@@H]4C[C@H]3CO4)cc12)c1cccc(C(F)F)c1F,+ (0 to 40% inhibition)
12,C[C@@H](Nc1cnnc2ccc(N3CC4CC(C3)O4)cc12)c1cccc(C(F)(F)F)c1,+ (0 to 40% inhibition)
13,C[C@@H](Nc1cnnc2ccc(N[C@@H]3CCOC3)cc12)c1cccc(C(F)F)c1F,+ (0 to 40% inhibition)
14,C[C@@H](Nc1cnnc2ccc(N[C@H]3CCOC3)cc12)c1cccc(C(F)F)c1F,+ (0 to 40% inhibition)
15,C[C@@H](Nc1cnnc2ccc(N3C4CCC3COC4)cc12)c1cccc(C(F)F)c1F,+ (0 to 40% inhibition)
16,Cc1c(C#N)cccc1[C@@H](C)Nc1cnnc2ccc(C3=CCN(C)CC3)cc12,+ (0 to 40% inhibition)
17,C[C@@H](Nc1cnnc2ccc(N3C[C@H]4C[C@@H]3CO4)cc12)c1cccc(C(F)F)c1F,++ (more than 40 to 70% inhibition)
18,Cc1c(C#N)cccc1[C@@H](C)Nc1cnnc2ccc(N3CC4CC(C3)O4)cc12,+ (0 to 40% inhibition)
19,COC1CC2(C1)CN(c1ccc3nncc(N[C@H](C)c4cccc(C(F)F)c4F)c3c1)C2,+ (0 to 40% inhibition)

row,SMILES,% inhibition at 0.1 uM
1,C[C@@H](Nc1cnnc2ccc(N3CCN4CCOC[C@@H]4C3)cc12)c1cccc(C(F)F)c1F,++ (more than 40 to 70% inhibition)
2,Cc1c(C#N)cccc1[C@@H](C)Nc1cnnc2ccc(N3CCC(C)(O)CC3)cc12,+ (0 to 40% inhibition)
3,C[C@@H](Nc1cnnc2ccc(C3=CCN(C)CC3)cc12)c1cccc(C#N)c1,+ (0 to 40% inhibition)
4,C[C@@H](Nc1cnnc2ccc(C3=CCNCC3)cc12)c1cccc(C(F)F)c1F,++ (more than 40 to 70% inhibition)
5,Cc1c([C@@H](C)Nc2cnnc3ccc(N4CC5(CN(C)C5)C4)cc23)cccc1C(F)(F)F,+ (0 to 40% inhibition)
6,C[C@@H](Nc1cnnc2ccc(N3CCN(C(=O)[C@@H]4CCOC4)CC3)cc12)c1cccc(C(F)F)c1F,+++ (more than 70 to 100% inhibition)
7,C[C@@H](Nc1cnnc2ccc(C3=CCN(C(=O)C4CC4)CC3)cc12)c1cccc(C(F)F)c1F,+ (0 to 40% inhibition)
8,C[C@@H](Nc1cnnc2ccc(C3=CCN(C)CC3)cc12)c1cccc(C(F)F)c1F,+++ (more than 70 to 100% inhibition)
9,C[C@@H](Nc1cnnc2ccc(N3CCN(C(=O)C4COC4)CC3)cc12)c1cccc(C(F)F)c1F,+++ (more than 70 to 100% inhibition)
10,C[C@@H](Nc1cnnc2ccc(N3CCN(C(=O)[C@H]4CCOC4)CC3)cc12)c1cccc(C(F)F)c1F,++ (more than 40 to 70% inhibition)
11,C[C@@H](Nc1cnnc2ccc(N3C[C@H]4COC[C@H]4C3)cc12)c1cccc(C(F)F)c1F,++ (more than 40 to 70% inhibition)
12,CC(=O)N1CC=C(c2ccc3nncc(N[C@H](C)c4cccc(C(F)F)c4F)c3c2)CC1,+ (0 to 40% inhibition)
13,C[C@@H](Nc1cnnc2ccc(N3CCN(C4COC4)CC3)cc12)c1cccc(C(F)F)c1F,+ (0 to 40% inhibition)
14,C[C@@H](Nc1cnnc2ccc(C3=CCN(C(=O)C4COC4)CC3)cc12)c1cccc(C(F)F)c1F,+++ (more than 70 to 100% inhibition)
15,C[C@@H](Nc1cnnc2ccc(N3CCN(C(=O)C4CCOCC4)CC3)cc12)c1cccc(C(F)F)c1F,++ (more than 40 to 70% inhibition)
16,C[C@@H](Nc1cnnc2ccc(N3C[C@H]4C[C@@H]3CO4)cc12)c1cccc(C(F)F)c1,+ (0 to 40% inhibition)
17,C[C@@H](Nc1cnnc2ccc(N3CC4CC(C3)O4)cc12)c1cccc(C(F)F)c1,+ (0 to 40% inhibition)
18,C[C@@H](Nc1cnnc2ccc(N3CCC(C)(O)CC3)cc12)c1cccc(C(F)F)c1,+ (0 to 40% inhibition)
